This assay addresses PI3K γ (Homo sapiens (Human), UniProt P48736). The assay can be described thus: PI3-Kinase HTRF assay. The class given is biochemical. The source says:
A PI3-Kinase HTRF® assay kit (cat No. 33-016) purchased from Millipore Corporation is used to screen compounds provided herein. This assay uses specific, high affinity binding of the GRP1 pleckstrin homology (PH) domain to PIP3, the product of a Class 1A or 1B PI3 Kinase acting on its physiological substrate PIP2. During the detection phase of the assay, a complex is generated between the GST-tagged PH domain and biotinylated short chain PIP3. The biotinylated PIP3 and the GST-tagged PH domain recruited fluorophores (Streptavidin-Allophycocyanin and Europium-labeled anti-GST respectively) to form the fluorescence resonance energy transfer (FRET) architecture, generating a stable time-resolved FRET signal. […]
PI3 Kinase α, γ or δ activity is assayed using the PI3 Kinase HTRF® assay kit (catalogue No. 33-016) purchased from Millipore Corporation. […] The assay is carried out in 384-well format and detected using a Perkin Elmer EnVision Xcite Multilabel Reader. […] IC50 values are determined using a nonlinear regression model available in GraphPad Prism 5.
Other commercial kits or systems for assaying PI3-K activities are available. […] The plate is sealed, incubated for 1 hour at room temperature, and then read on an appropriate plate reader. Data is analyzed and IC50s are generated using GraphPad Prism 5.

Amino acid sequences for entries named in this document (tags omitted). A change or cut given only in a name is not applied to a line headed by its entry.
UniProt P48736: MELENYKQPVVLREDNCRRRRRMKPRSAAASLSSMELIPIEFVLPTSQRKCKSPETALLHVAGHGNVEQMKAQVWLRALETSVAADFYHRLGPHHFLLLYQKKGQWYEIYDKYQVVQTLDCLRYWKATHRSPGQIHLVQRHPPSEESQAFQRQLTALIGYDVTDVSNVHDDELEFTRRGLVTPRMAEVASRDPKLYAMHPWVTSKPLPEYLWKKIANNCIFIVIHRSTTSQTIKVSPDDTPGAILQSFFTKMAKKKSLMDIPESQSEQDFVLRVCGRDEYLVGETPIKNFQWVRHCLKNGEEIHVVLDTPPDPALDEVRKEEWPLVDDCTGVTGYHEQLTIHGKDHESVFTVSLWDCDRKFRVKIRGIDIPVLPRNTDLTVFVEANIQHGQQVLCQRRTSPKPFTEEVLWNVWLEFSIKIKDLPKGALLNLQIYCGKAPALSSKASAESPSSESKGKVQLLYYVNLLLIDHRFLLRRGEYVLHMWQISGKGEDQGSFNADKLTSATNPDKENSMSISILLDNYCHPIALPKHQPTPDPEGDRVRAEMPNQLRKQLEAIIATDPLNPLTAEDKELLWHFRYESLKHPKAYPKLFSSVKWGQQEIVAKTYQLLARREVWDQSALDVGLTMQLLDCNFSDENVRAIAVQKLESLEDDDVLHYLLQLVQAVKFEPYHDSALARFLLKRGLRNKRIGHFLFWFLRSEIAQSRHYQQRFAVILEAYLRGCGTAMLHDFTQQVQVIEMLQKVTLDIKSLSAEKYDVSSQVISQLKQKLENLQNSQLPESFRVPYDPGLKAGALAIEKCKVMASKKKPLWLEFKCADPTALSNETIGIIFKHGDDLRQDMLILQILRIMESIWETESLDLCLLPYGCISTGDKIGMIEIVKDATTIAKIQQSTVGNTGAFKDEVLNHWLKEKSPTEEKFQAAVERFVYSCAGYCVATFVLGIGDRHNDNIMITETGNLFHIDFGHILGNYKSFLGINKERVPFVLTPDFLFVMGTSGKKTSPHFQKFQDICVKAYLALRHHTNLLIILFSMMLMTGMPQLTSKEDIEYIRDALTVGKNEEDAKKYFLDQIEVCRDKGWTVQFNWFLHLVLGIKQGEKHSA

Each structure is given as a SMILES string.

On to `C[C@H](NC(=O)c1c(N)nn2ccccc12)c1cc2cccc(Cl)c2c(=O)n1-c1ccccc1` [Compound 31], for which the IC50 was in the range of 100 to 500 nM.

The values are drawn from patent US10919914B2, “Heterocyclic compounds and uses thereof” (Infinity Pharmaceuticals, Inc., priority 2016, dated 2021).
